Legend:
[1] = biological target: NK-1 (Homo sapiens, UniProt P25103); assay: NK1 radioligand binding assay; conditions: read-out: NK-1 IC50; U373 membrane preparation, [125I]Substance P
[2] = biological target: hSERT (Homo sapiens, UniProt P31645); assay: SERT radioligand binding assay; conditions: read-out: SERT IC50; HEK-hSERT membrane preparation, [125I]RTI-55

Protein sequences, listed by entry. Tags and fused reporters are not part of them.
UniProt P25103, whole entry: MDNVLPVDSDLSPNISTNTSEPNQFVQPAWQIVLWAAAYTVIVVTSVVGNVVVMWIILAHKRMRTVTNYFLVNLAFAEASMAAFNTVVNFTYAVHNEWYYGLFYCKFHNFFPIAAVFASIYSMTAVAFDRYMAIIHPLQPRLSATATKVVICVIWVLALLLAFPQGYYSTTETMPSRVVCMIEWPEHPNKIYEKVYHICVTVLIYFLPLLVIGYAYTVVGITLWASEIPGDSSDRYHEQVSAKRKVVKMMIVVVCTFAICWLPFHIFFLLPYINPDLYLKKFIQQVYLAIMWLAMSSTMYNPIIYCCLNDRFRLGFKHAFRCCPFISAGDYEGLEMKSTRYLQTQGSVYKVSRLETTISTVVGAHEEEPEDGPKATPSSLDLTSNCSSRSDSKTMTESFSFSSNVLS
UniProt P31645, whole entry: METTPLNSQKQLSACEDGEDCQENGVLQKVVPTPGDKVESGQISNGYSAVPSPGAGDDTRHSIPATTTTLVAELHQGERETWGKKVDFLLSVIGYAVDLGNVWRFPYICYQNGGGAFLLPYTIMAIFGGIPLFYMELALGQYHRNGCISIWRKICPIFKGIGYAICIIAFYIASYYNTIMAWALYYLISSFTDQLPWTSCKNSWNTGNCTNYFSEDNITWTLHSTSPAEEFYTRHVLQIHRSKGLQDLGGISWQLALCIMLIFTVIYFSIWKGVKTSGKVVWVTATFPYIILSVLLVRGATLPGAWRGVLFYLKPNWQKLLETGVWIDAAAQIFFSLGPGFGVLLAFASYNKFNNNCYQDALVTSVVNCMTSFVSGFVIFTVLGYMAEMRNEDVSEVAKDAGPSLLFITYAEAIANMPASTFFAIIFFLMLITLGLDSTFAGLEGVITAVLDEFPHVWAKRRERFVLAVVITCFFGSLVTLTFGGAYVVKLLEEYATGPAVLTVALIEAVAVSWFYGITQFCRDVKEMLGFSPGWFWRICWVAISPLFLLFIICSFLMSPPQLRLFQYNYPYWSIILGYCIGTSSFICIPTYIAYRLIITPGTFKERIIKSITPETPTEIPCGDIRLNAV

Structure (SMILES): CCN(c1cc(C(F)(F)F)cc(COCC2(c3ccccc3)CCN(C)CC2)n1)C(C)C
- IC50 [1]: 0.01 to 100 nM
- IC50 [2]: 0.01 to 100 nM
